Biological target: Isoform 3 of Ribosomal protein S6 kinase alpha-2 (3) (Homo sapiens, UniProt Q15349)
Experiment: PubChem AID 1433

The chains behind the UniProt entries cited, without tags or fusion partners. A line that says so, or that is headed by a name, gives the form on record, which may keep a tag or linker.
UniProt Q15349, as listed by the source: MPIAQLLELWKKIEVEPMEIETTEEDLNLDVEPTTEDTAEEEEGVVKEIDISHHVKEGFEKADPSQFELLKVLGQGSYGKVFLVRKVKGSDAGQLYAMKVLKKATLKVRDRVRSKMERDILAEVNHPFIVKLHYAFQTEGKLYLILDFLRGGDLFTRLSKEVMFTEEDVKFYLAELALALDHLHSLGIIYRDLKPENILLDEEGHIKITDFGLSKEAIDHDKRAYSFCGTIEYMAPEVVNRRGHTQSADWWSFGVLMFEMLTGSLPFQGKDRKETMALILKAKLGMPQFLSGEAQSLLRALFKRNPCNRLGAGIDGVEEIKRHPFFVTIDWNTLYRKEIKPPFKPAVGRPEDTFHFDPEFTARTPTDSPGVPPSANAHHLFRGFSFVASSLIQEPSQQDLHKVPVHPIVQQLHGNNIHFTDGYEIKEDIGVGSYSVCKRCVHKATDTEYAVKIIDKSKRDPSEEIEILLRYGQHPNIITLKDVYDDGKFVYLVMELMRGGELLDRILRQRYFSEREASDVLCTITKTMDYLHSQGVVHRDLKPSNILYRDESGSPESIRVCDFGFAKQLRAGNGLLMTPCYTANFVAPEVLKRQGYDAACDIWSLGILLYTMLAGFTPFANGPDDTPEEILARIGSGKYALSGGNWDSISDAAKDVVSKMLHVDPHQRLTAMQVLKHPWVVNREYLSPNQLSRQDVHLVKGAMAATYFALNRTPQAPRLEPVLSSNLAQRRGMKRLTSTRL

Structure (SMILES): CCN1CCN(Cc2ccc(NC(=O)Nc3ccc(Oc4cc(NC)ncn4)cc3)cc2C(F)(F)F)CC1
- Ki: 1100 µM
